# Measured values from ChEMBL document CHEMBL1129309, “Asymmetric syntheses, opioid receptor affinities, and antinociceptive effects of 8-amino-5,9-methanobenzocyclooctenes, a new class of structural analogues of the morphine alkaloids” (J Med Chem, 1996).
# Tested on: Mus musculus
# Assay: Percent activity against delta selective antinociception when given icv injection at a dose of 30 nmol 20 min before mouse tail flick test
smiles,measurement,value
CN(C(=O)Cc1ccc(Cl)c(Cl)c1)C1CCCCC1N1CCCC1 (stereo unspecified),Activity,57%
